Assay results published in article PMC8199245, “Serotonin Promotes Serum Albumin Interaction with the Monomeric Amyloid β Peptide” (International Journal of Molecular Sciences, 2021).

What was measured:
AD patients = conditions: plasma exchange with replacement by therapeutic HSA; cited from earlier work
Text: An alternative, less invasive approach to the lowering of the free Aβ level in the brain is a pharmacologically guided shift in the equilibrium between HSA and Aβ towards their complex. The latter possibility was recently confirmed by arachidonic/linoleic-aci ...

[1] = target: HSA–monomeric Aβ40 (recombinant human Aβ40) (Homo sapiens, UniProt P02768); experiment: SPR of HSA interaction with immobilized monomeric Aβ40, without/with SRO or TRP; conditions: read-out: KD (effective equilibrium dissociation constant); column head KD × 10^7, i.e. KD = value × 10^−7 M; HSA without ligand; SPR 25 °C, pH 7.4; HSA 5–60 µM; mean ± SD over HSA concentrations
Experimental: The recombinant human Aβ40 or Aβ42 sample was immobilized on the surface of the SPR sensor chip by amine coupling, followed by removal from the surface of the non-covalently bound Aβ molecules by a 2% SDS water solution [12]. […] (5–60 µM) was used as an analyte.
Aβ40/Aβ42 was immobilized on the sensor chip’s surface by amine coupling.
Recombinant human Aβ40/Aβ42 samples were pretreated for SPR measurements mainly as described in [46]. The freeze-dried Aβ sample was dissolved in neat TFA at a concentration of 0.5–1 mg/mL. The solution was sonicated for 30 s. TFA was evaporated using Eppendorf Concentrator plus. The dried Aβ sample was dissolved in DMSO at a concentration of 2 mg/mL, and stored at −20 °C.
SPR measurements were performed at 25 °C using a Bio-Rad ProteOn™ XPR36 instrument mainly as previously described. Ligand (57 μg/mL recombinant human Aβ40/Aβ42 in 10 mM sodium acetate, pH 4.5 buffer) was immobilized on a ProteOn GLH sensor chip surface (up to 7000–9000 RUs) by amine coupling. The remaining activated amine groups on the chip surface were blocked by 1 M ethanolamine solution. The non-covalently bound Aβ40/Aβ42 molecules were washed from the chip surface with 2% SDS water solution until stabilization of the signal. […] The sensor chip surface was regenerated by passage of 10 mM EDTA pH 7.9 solution containing 2% SDS. […]

Aβ = conditions: cited from earlier work
Aβ in blood plasma = system: Aβ in blood plasma; set-up: method as in PMID 8955133; conditions: cited from earlier work

HSA: human serum albumin, 66.5 kDa; fatty-acid-free sample (Merck #126654) in the experiments
memory and language functions (AD patients): persistent improvements in the memory and language functions of the patients | Kd [1]: 60 ± 30 nM | protection of Aβ from self-aggregation and cytotoxicity (Aβ): effectively rescues Aβ from deleterious self-aggregation and cytotoxicity | share of total amyloid inhibitory activity of plasma proteins (Aβ): ~60% | fraction of Aβ bound to HSA in blood plasma (Aβ in blood plasma): ~89%
